Measurements as given in PubChem BioAssay AID540336 (Broad Institute, 2011).
Only a part is listed here, and it is no random draw. Some of these compounds have results that are not shown, active ones among them. Calls of active or inactive are those of the source.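 The calls were made as follows: active = inhibition of at least 50% in every replicate; inconclusive = best replicate reaches 50% inhibition but some replicates fall short; inactive = the rest.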

Chains of the proteins cited; added tags and fusions are not shown.
UniProt Q5AAJ8, whole entry: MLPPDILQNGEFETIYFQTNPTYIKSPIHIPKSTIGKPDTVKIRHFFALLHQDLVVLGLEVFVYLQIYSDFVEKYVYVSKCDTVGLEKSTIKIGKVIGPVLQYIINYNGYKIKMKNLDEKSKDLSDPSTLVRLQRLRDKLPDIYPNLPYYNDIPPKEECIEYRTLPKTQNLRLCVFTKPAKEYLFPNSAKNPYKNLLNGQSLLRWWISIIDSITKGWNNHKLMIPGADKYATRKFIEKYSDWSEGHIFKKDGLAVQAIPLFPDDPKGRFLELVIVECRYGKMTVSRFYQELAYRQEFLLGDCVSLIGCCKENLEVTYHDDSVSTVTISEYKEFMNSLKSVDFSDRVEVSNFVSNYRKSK

These compounds were tested against Histone acetyltransferase RTT109 (Candida albicans (strain SC5314 / ATCC MYA-2876)) (UniProt Q5AAJ8) (assay: inhibitors of C. albicans Rtt109/Vps75 HAT, primary screen, biochemical, ThioGlo CoA-SH fluorescence, plate reader (AID 540336)). Settings: purified Rtt109/Vps75, ThioGlo CoA-SH fluorescence, 4 h; at 34.9 µM; stronger effect = higher value.

Row | Compound | inhibition
1 | COc1cc(C(=O)NCC2(N(C)C)CCCCC2)c([N+](=O)[O-])cc1OC | inactive: -6.45%
2 | CN(C)C1(CNC(=O)c2ccc(Br)cc2)CCCCC1 | inactive: 11.7%
3 | O=C(NCC1(N2CCCCC2)CCCCC1)c1cccc(Cl)c1 | inactive: 1.25%
4 | COc1ccc(Cl)cc1C(=O)NCC1(N(C)C)CCCCC1 | inactive: 11.1%
5 | COc1cccc(C(=O)NCC2(N3CCCCC3)CCCCC2)c1 | inactive: -35.9%
6 | O=C(OC1CN2CCC1CC2)C(CO)(c1ccccc1)c1ccccc1 (centres undefined) | inactive: 0.347%
7 | CN(C)c1cccc(C(=O)NCC2(N(C)C)CCCCC2)c1 | inactive: -15.7%
8 | O=C(OCCN1CCCC1)C(O)(c1ccccc1)c1ccccc1 | inactive: 2.52%
9 | CC(C)Oc1ccc(C(=O)NCC2(N(C)C)CCCCC2)cc1 | inactive: 7.63%
10 | COc1ccc(Br)c(C(=O)NCC2(N3CCCCC3)CCCCC2)c1 | inactive: 5.14%
11 | O=C(NCC1(N2CCCCC2)CCCCC1)c1cc([N+](=O)[O-])ccc1Cl | inactive: 2.44%
12 | Cc1ccc(C(=O)NCC2(N3CCCCC3)CCCCC2)cc1 | inactive: 0.764%
13 | CC(C)N1C(=O)CC2(CCN(CCOC(=O)C(O)(c3ccccc3)c3ccccc3)CC2)C1=O | inactive: -0.239%
14 | COc1cc(SC)ccc1C(=O)NCC1(N(C)C)CCCCC1 | inactive: -1.45%
15 | CCN(CC)CC(C)C(C)OC(=O)C(O)(c1ccccc1)c1ccccc1 (centres undefined) | inactive: 0.696%
16 | CN(C)C1CCCC1OC(=O)C(O)(c1ccccc1)c1ccccc1 (centres undefined) | inactive: -6.38%
17 | CN(C)c1ccc(C(=O)NCC2(N(C)C)CCCCC2)cc1 | inactive: -4.81%
18 | Cc1ccccc1C(=O)NCC1(N2CCCCC2)CCCCC1 | inactive: 0.275%
19 | O=C(NCC1(N2CCCCC2)CCCCC1)c1cccc(Br)c1 | inactive: -1.19%
20 | Cc1cc(C(=O)NCC2(N3CCCCC3)CCCCC2)ccc1[N+](=O)[O-] | inactive: -0.263%
21 | CCN1CCCC(OC(=O)C2(O)c3ccccc3C=Cc3ccccc32)C1 (centres undefined) | inactive: -1.87%
22 | COc1ccc(C(=O)NCC2(N(C)C)CCCCC2)cc1 | inactive: 2.34%
23 | O=C(NCC1(N2CCCCC2)CCCCC1)c1cc(F)c(F)cc1Cl | inactive: 0.202%
24 | C=CCN1CCN(CCOC(=O)C(O)(c2ccccc2)c2ccccc2)CC1 | inactive: -7.62%
